This test concerns the target Muscarinic acetylcholine receptor M3 (Homo sapiens, UniProt P20309). The test can be described thus: [3H]-NMS Binding Assay.

Protein sequences, listed by entry. Tags and fused reporters are not part of them.
UniProt P20309, whole entry, looked up: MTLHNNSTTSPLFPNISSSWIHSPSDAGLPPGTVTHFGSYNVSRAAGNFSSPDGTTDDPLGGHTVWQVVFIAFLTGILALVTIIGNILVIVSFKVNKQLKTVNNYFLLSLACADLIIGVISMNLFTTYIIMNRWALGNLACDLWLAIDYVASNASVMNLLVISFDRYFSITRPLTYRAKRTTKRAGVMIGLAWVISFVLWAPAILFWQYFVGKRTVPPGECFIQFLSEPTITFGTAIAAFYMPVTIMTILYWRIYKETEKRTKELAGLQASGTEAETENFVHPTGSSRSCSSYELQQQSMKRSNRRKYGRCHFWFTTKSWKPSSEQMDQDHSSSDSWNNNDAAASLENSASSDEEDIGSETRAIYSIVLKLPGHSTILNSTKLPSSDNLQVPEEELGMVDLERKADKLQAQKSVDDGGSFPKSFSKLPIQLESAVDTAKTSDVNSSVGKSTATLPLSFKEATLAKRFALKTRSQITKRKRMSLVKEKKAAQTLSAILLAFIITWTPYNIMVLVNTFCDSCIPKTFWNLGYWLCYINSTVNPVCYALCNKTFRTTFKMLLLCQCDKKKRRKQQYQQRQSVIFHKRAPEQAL

For `O=C(O[C@H]1C[N+]2(CCc3cccs3)CCC1CC2)C(O)(c1cccs1)c1cccs1`, the IC50 (usually the concentration that gives 50% inhibition) is 3.1 nM.

Values taken from BindingDB's records for US9333195.
